Laboratory results reported in article PMC3662788, “The Catalytic Roles of P185 and T188 and Substrate-Binding Loop Flexibility in 3α-Hydroxysteroid Dehydrogenase/Carbonyl Reductase from Comamonas testosteroni” (PLoS ONE, 2013).

By UniProt entry, the sequences of proteins in these tests, tags left out.
UniProt P80702, whole entry P185G: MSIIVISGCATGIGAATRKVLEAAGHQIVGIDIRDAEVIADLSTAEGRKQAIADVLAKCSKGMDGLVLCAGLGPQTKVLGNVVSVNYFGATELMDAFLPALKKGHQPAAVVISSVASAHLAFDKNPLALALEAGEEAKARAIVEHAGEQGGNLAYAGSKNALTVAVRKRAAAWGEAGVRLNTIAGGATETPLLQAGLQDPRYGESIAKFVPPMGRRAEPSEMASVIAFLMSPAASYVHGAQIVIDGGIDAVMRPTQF

Molecular target: P185G mutant 3α-HSD/CR (Comamonas testosteroni, UniProt P80702, P185G)
Assay: Steady-state kinetics and primary isotope effects, oxidation of androsterone with NAD^+

NC(=O)c1ccc[n+]([C@@H]2O[C@H](COP(=O)([O-])OP(=O)(O)OC[C@H]3O[C@@H](n4cnc5c(N)ncnc54)[C@H](O)[C@@H]3O)[C@@H](O)[C@H]2O)c1 [NAD^+]
ΔΔGbmut/wt (differential ground-state binding energy, enzyme-NAD^+ complex) (P185G vs wild-type, pH 10.5, Equation 4): 2.6 kcal/mol
kcat/Ka (NAD^+) (P185G, 0.1 M Caps pH 10.5, 25°C): 1.3e+06 ± 400000 M⁻¹ s⁻¹
